Assay results published in patent US12161723B2, “Water-based cannabinoid and opioid compositions” (DAY THREE LABS MAN[…]., priority 2014, dated 2024).

Molecular target: T1, rice recombinant human serum albumin (HSA) (Homo sapiens, UniProt P02768)
T1 construct: host or cells: rice (recombinant expression host)
Experiment: Cannabis vapor streamed through protein solution, cannabinoids adsorbed (Example 1f)
Type: binding
Conditions: vapor of cannabis high in CBD; 1 mg/ml HSA
Method: Vapor of cannabis plant material high in CBD was formed using a volcano vaporizer, and the vapor was streamed through 1 mg/ml solutions of either rice recombinant human serum albumin (HSA), bovine γ-globulin or ovalbumin (hen). The protein solutions were formed using ethanol and water in a 1:2 ratio. The solutions were incubated at 30° C. for 24 hours.

Q: “HSA: rice recombinant human serum albumin” was tested. Which “cannabinoid adsorbed per mg of protein” value did it give?
A: about 4 micrograms of cannabinoid per mg of protein
